Assay results published in ChEMBL document CHEMBL6127116, “Discovery of Potent and Selective Blockers Targeting the Epilepsy-Associated KNa1.1 Channel” (J Med Chem, 2024).
pIC50: −log10 of the molar value.

Assay: Inhibition of human wild type SLACK expressed in CHO cells by Whole-cell automated patch clamp assay
Format: cell-based

**Q.** With `CCCCN(Cc1ccc(F)cc1)C1=NC2C(C(=O)N(Cc3cccc(OC)c3)C(=O)N2C)N1C` (stereo unspecified) as the molecule, how does the pIC50 read?
**A.** Its pIC50 is 6.15.
